# According to US20250312470A1, “A PHARMACEUTICAL COMPOSITION OF ANTI-HER2 ANTIBODY-IMMUNE AGONIST CONJUGATE AND APPLICATIONS THEREOF” (GENEQUANTUM HEALTHCARE (SUZHOU) CO., LTD., priority 2022, published 2025):
# Tests used:
# [1] = system: NCI-N87 human gastric cancer cells; assay: In vivo anti-tumor efficacy, NCI N87 CDX model; parameters: species or system SCID Beige mice; settings: 5 mg/kg intravenously
# Experimental: For in vivo anti-tumor efficacy study, 1×10^7 NCI-N87 human gastric cancer cells were inoculated subcutaneously in the right flank of SCID Beige mice. […] The tumor volume was measured twice weekly with a caliper.
# [2] = system: MC38 hHER2 murine colorectal cancer cells overexpressing human HER2; assay: In vivo anti-tumor efficacy, MC38 model overexpressing hHER2; parameters: species or system C57BL/6 mice; settings: 10 mg/kg intravenously
substance,measurement,setting,value
Ab0001: naked unmodified antibody Ab0001 (Trastuzumab) [reference compound],anti-tumor activity (tumor volume),[1],very limited anti-tumor activity
same,anti-tumor activity (tumor volume),[2],no obvious anti-tumor activity
